This note sets out measurements from patent publication US20070059684A1 (UNIVERSITY OF MEDICINE AND DENTISTRY OF NEW JERSEY, published 2007).

The test concerns translation (LUC0 reporter mRNA). To be noted: yeast extract, lower drug doses.

As to `COc1ccc(C[C@H]2NC[C@H](O)[C@H]2OC(C)=O)cc1` [anisomycin], the “luciferase production from the LUC0 reporter mRNA” value was “initially stimulate luciferase production”.
